Data: patent US6841362B1, “Melanoma differentiation associated gene-7 promoter and uses thereof” (The Trustees of Columbia University in the City of New York, priority 2000, dated 2005)

Legend:
Format in all cases: cell-based, human
mda-7 mRNA = test: RT-PCR followed by Southern blotting of mda-7 mRNA; settings: HO-1 cells, compared to IFN-β+MEZ treated samples
Procedure: (§1) FIGS. 2A-2C. Determination of mda-7 transcription by nuclear run-on, mda-7 mRNA by Northern blotting and RT-PCR and a comparison of the AU-rich sequences found in the 3′-UTR of several mRNAs. (FIG. 2A) Nuclear run-on assays using nuclei isolated from Control or 24 h after treatment with IFN-β, MEZ or IFN-β+MEZ, the same concentrations as indicated in FIG. 1. GAPDH was used as an internal control. In vitro transcription assays were performed as previously described (Jiang et al., 1993). (FIG. 2B) Mda-7 message expression detected by Northern blotting and RT-PCR followed by Southern blotting. Total RNA from control (FIG. 2C) HO-1 cells and cells treated with IFN-β (I), MEZ (M) or IFN-β+MEZ (I+M) were analyzed by Northern blotting or RT-PCR/Southern using radiolabeled mda-7 cDNA as a probe as previously described (Jiang et al., 1993, 1995a; Kang et al., 1998a). GAPDH was used as an internal loading control. (C) Several cytokine genes and proto-oncogenes that contain the AUUUA consensus sequence in their 3′-UTRs. Abbreviations: Hu=human; mda-7=melanoma differentiation associated gene-7 (Jiang et al., 1995a); α-IFN alpha interferon (Goeddel et al., 1981); GM-CSF=granulocyte-monocyte colony stimulating factor (Wong et al., 1985); TNF=tumor necrosis factor (Nedwin et al., 1985); cFos=fos proto-oncogene (van Straaten et al., 1983). (SEQ ID NOS:9-13). […]
Nucleic acid analysed. […]

mda-7-ARE-3'-UTR = test: Luciferase-mda-7-ARE-3'UTR reporter assay; settings: HO-1 cells
Excerpt: FIGS. 3A-3B. Posttranscriptional regulation of Luciferase mRNA as a consequence of mda-7-3′ UTR addition at its 3′-end. The Luciferase expression plasmid having SV40 polyadenylation signal sequence was replaced with the 3′-UTR region (approximately 900 bp) of mda-7. A schematic representation of this chimeric construct is shown above the data. (FIG. 3A) Mda-7 3′-UTR mediated destabilization of luciferase mRNA was computed as fold induction of luciferase enzyme activity, which is seen only when stable luciferase mRNA, is synthesized. Compare the result shown in FIG. 1A of uninduced and IFN-β and MEZ treated samples. The relative activity is very high as shown in FIGS. 1A-1B as the 3′-UTR used in that assay came from SV40 while the 3′-UTR used in this study was replaced with the mda-7 3′-UTR. […]
To examine the posttranscriptional regulation of mda-7 mRNA specifically during terminal differentiation of human melanoma cells, we constructed a Luciferease-mda-7-ARE-3′UTR plasmid under transcriptional control of either the FL-mda-7 promoter (FIG. 3) or the SV40 large T-antigen promoter. […] Based on these observations we conclude that the steady state level of mda-7 mRNA is determined by posttranslational decay of the message, which is apparent in uninduced and in HO-1 cells treated singularly with IFN-β or MEZ.

FL-mda-7 promoter = FL-mda-7 promoter luciferase reporter assay, transient transfection; settings: HO-1 and MeWo cells, 48 hr treatment, relative to uninduced; IFN-β 2000 units/ml, MEZ 10 ng/ml
Procedure: FIGS. 1A-1B. The effect of differentiation inducer drug treatment on full length mda-7 promoter activity. Fold induction of the FL-mda-7 promoter relative to the pGL3-Basic plasmid with or without differentiation inducer drug treatment in HO-1 (FIG. 1A) or MeWo (FIG. 1B) human melanoma cells. Luciferase assays were performed as previously described (Gopalkrishnan et al., 1999). In brief, the promoter-containing plasmids were transiently transfected into the different cell types using Superfect^R (Qiagen) according to the manufacturer's protocol. The cells were treated with differentiation inducers (IFN-β, 2000 units/ml; MEZ, 10 ng/ml; or IFN-β+MEZ, 2000 units/ml+10 ng/ml) for 48 h following transfection and assayed for luciferase activity using the Luc+Assat Kit (Promega). The SV40-p-Galactosidase plasmid was co-transfected with the luciferase constructs and used to normalize for variations in transfection efficiencies between experiments. […]
The presumptive promoter fragment was assayed for promoter activity using a heterologous gene reporter system (pGL3-Basic, luciferase assay system, Promega). […] The transfection efficiency was determined by cotransfection with RSV-β-galactosidase (Tropics β-Gal assay kit) and the relative luciferase activity was computed after correction for variations in transfection efficiencies. […]

mda-7 gene = test: Nuclear run-on assay of mda-7 transcription; settings: HO-1 cells, 24 h treatment, versus uninduced control
Procedure: as §1

luciferase enzyme activity of Luciferase-mda-7-ARE-3'UTR construct (mda-7-ARE-3'-UTR): minimal
activity of the FL-mda-7 promoter (luciferase) (FL-mda-7 promoter): decreases
Substance: IFN-β: recombinant human fibroblast interferon
mda-7 mRNA by RT-PCR (mda-7 mRNA): lower levels
rate of mda-7 transcription (mda-7 gene): reduced
